These results are taken from PubChem BioAssay AID1007 (NMMLSC, 2008).

Sequences of proteins named here, by UniProt entry; tags and fusion partners are left off.
UniProt Q07817, whole entry: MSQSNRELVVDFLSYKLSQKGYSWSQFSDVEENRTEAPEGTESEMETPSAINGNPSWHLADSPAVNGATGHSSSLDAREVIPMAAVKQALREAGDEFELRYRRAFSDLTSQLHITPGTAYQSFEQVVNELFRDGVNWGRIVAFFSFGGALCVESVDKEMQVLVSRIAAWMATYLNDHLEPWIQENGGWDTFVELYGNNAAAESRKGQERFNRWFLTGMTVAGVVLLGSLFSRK

This is a selection; strong and weak results do not stand in their true shares. Activity calls are given as the source filed them. No stated cut-off is given here; in the data, active means inhibition above about 40%.

In this assay the target is Bcl-2-like protein 1 (Homo sapiens) (UniProt Q07817). Description: Bcl-XL/Bim peptide interaction blockers – biochemical, multiplexed, bead flow cytometry, human Bcl-XL, primary screen (AID 1007). The note with it: Bim peptide-Bcl-XL binding, fluorescence, at 10 µM, stronger effect = higher value. Background: In flow cytometry, cells or beads pass a laser one at a time.
With `CC(C)(C)OC(=O)N1CCC(Nc2ccccc2)CC1`, the inhibition (in general, the relative decrease from the control value, in per cent) was inactive: -1%.

Regarding `CCOc1ncccc1C(=O)NCC1(N2CCOCC2)CCCCC1`, the inhibition was inactive: 1%.

Regarding `COc1cc(OC)cc(C(=O)NCC2(N3CCOCC3)CCCCC2)c1`, the inhibition was inactive: 1%.

Turning to `CCC(CO)(C(=O)OC1CN2CCC1CC2)c1ccccc1` (stereo not given), the inhibition is inactive: -4%.

Turning to `Fc1ccccc1NC1CCN(Cc2ccccc2)CC1`, the inhibition is inactive: -4%.

For `CN(C)c1ccc(C(=O)NCC2(N3CCCCC3)CCCCC2)cc1`, the inhibition is inactive: 1%.

For the molecule `CCN1CCC(Nc2cccc(F)c2)CC1`, the inhibition is inactive: -3%.

Turning to `N#Cc1ccc(C(=O)NCC2(N3CCCCC3)CCCCC2)cc1`, the inhibition is inactive: -3%.

As to `c1ccc(CN2CCC(Nc3ccccc3)CC2)cc1`, the inhibition was inactive: -7%.

For the molecule `COc1ccc(C(=O)NCC2(N3CCOCC3)CCCCC2)cc1OC`, the inhibition is inactive: -1%.

With `O=C(OC1CN2CCC1CC2)C1c2ccccc2C=Cc2ccccc21` (stereo not given), the inhibition is inactive: 0%.

`N/C(=N\O)c1c(N)no[n+]1[O-]`: the inhibition is inactive: -1%.

With `CC(C)c1ccc(NC2CCN(C(=O)OC(C)(C)C)CC2)cc1`, the inhibition was inactive: 0%.

Consider `COc1ccc(CN(CCCl)CCCl)cc1Cl`, for which the inhibition is inactive: -4%.

On to `CN(C)c1cccc(C(=O)NCC2(N3CCCCC3)CCCCC2)c1`, for which the inhibition was inactive: -4%.

For `N#CC1(Nc2ccccc2)CCN(CCc2ccccc2)CC1`, the inhibition was inactive: -1%.

Regarding `O=C(NCC1(N2CCCCC2)CCCCC1)c1cccc([N+](=O)[O-])c1`, the inhibition is inactive: -2%.

As for `O=C(NCC1(N2CCOCC2)CCCCC1)c1cc(=O)[nH]c2ccccc12`, the inhibition is inactive: -8%.

Consider `CN1CCN(CCOC(=O)C(O)(c2ccccc2)c2ccccc2)CC1`, for which the inhibition was inactive: -6%.

Turning to `COc1ccc(NC2CCN(C(=O)OC(C)(C)C)CC2)cc1`, the inhibition is inactive: -2%.

In the case of `COc1ccc(NC2CCN(CCc3ccccc3)CC2)c(OC)c1`, the inhibition was inactive: -4%.

In the case of `COc1ccc(C(=O)NCC2(N3CCCCC3)CCCCC2)c(OC)c1OC`, the inhibition was inactive: 2%.

As to `O=C(OC1CN2CCC1CC2)C1c2ccccc2Oc2ccccc21` (stereo not given), the inhibition is inactive: -2%.

Regarding `CCOC(=O)N1CCC(Nc2ccc(OC)cc2)CC1`, the inhibition was inactive: -3%.

`O=C(NCC1(N2CCOCC2)CCCCC1)c1cc2ccccc2o1`: the inhibition is inactive: 5%.
